Measured values reported in ChEMBL document CHEMBL1133532.
Only a part of the results on these compounds is given; other tests are left out.

Test: Partition coefficient (logP)
Conditions: octanol/water
In the case of O=C(OC1CCN(CCc2ccccc2)CC1)C(O)(c1ccccc1)c1ccccc1, the logP is reported as 4.9. With O=C(OC1CCNCC1)C(O)(c1ccccc1)c1ccccc1 the logP was 2.51. With O=C(OC1CCN(Cc2ccc([N+](=O)[O-])cc2)CC1)C(O)(c1ccccc1)c1ccccc1 the logP was 4.2. O=C(OC1CCCN(CCF)C1)C(O)(c1ccccc1)c1ccccc1 (stereo not given) gave a logP of 3.43. With CCN1CCC(OC(=O)C(O)(c2ccccc2)c2ccccc2)CC1 the logP was 3.23. Compound O=C(OC1CCCNC1)C(O)(c1ccccc1)c1ccccc1 (stereo not given) has a logP of 2.89. In the case of CC(CF)N1CCC(OC(=O)C(O)(c2ccccc2)c2ccccc2)CC1 (stereo not given), the logP is reported as 3.43. CC(CF)N1CCCC(OC(=O)C(O)(c2ccccc2)c2ccccc2)C1 (stereo not given) showed a logP of 3.8. With O=C(OC1CCN(Cc2ccc(F)cc2)CC1)C(O)(c1ccccc1)c1ccccc1 the logP was 4.79. Compound O=C(OC1CCN(Cc2ccc(F)cc2)C1)C(O)(c1ccccc1)c1ccccc1 (stereo not given) has a logP of 4.72. With O=C(OC1CCN(CCF)C1)C(O)(c1ccccc1)c1ccccc1 (stereo not given) the logP was 2.98. Compound CCN1CCC(OC(=O)C(O)(c2ccccc2)c2ccccc2)C1 (stereo not given) has a logP of 3.15. With O=C(OC1CCN(CCF)CC1)C(O)(c1ccccc1)c1ccccc1 the logP was 3.06. In the case of O=C(OC1CCCN(Cc2ccccc2)C1)C(O)(c1ccccc1)c1ccccc1 (stereo not given), the logP is reported as 5.02. For CCCN1CCCC(OC(=O)C(O)(c2ccccc2)c2ccccc2)C1 (stereo not given), the logP was 4.08. In the case of O=C(OC1CCCN(Cc2ccc(F)cc2)C1)C(O)(c1ccccc1)c1ccccc1 (stereo not given), the logP is reported as 5.17. Compound O=C(OC1CCN(CCCF)C1)C(O)(c1ccccc1)c1ccccc1 (stereo not given) has a logP of 3.06. In the case of CC(C)N1CCC(OC(=O)C(O)(c2ccccc2)c2ccccc2)CC1, the logP is reported as 3.59. With O=C(OC1CCCN(CCCF)C1)C(O)(c1ccccc1)c1ccccc1 (stereo not given) the logP was 3.51. In the case of CC(CF)N1CCC(OC(=O)C(O)(c2ccccc2)c2ccccc2)C1 (stereo not given), the logP is reported as 3.35. Compound O=C(OC1CCN(Cc2ccccc2)CC1)C(O)(c1ccccc1)c1ccccc1 has a logP of 4.64. In the case of O=C(OC1CCN(CCc2ccc([N+](=O)[O-])cc2)CC1)C(O)(c1ccccc1)c1ccccc1, the logP is reported as 4.46. O=C(OC1CCNC1)C(O)(c1ccccc1)c1ccccc1 (stereo not given) gave a logP of 2.44. O=C(OC1CCN(CCCF)CC1)C(O)(c1ccccc1)c1ccccc1 showed a logP of 3.14. For O=C(OC1CCN(Cc2ccccc2)C1)C(O)(c1ccccc1)c1ccccc1 (stereo not given), the logP was 4.56.
